Assay [1] addresses T1, bovine lactoferrin (bovine, UniProt P24627 20-708). The assay is described as follows: iMab on Ni-NTA column, 0.2 mg/ml lactoferrin loaded, NaCl elution, SDS-PAGE.
Assay [2] deals with T2, chicken egg white lysozyme (chicken, UniProt P00698 19-147).
T2 sequence: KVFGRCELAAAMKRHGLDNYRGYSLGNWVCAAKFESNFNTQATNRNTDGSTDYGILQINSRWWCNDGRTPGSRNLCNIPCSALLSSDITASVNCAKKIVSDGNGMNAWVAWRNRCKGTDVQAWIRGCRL
The assay is described as follows: affinity chromatography against a Ni-NTA matrix without iMab100 (milk powder).

Assay [3] has as its target T1, bovine lactoferrin. The assay is described as follows: phage display selection, then column binding as in Example 10.

Residue numbers refer to the chain shown, from its start.

B1: iMab142-02-0002 (designed binder)
chain: MNVKLVEKGGNFVENDDDLKLTCRAEGYTIGPYSMGWFRQAPNDDSTNVSCINMGGGITYYGDSVKERFDIRRDNASNTVTLSMDDLQPEDSAVYSCAADWWDGFTYGSTWYNPSSYDYRGQGTDVTVSSASSAGGGGSYTDIEMNRLGKSHHHHHHG
In the case of B1, the binding result in assay [1] is reported as “binds”.

B2: iMab100 + VSV + HIS (designed binder)
chain: MNVKLVEKGGNFVENDDDLKLTCRAEGYTIGPYCMGWFRQAPNDDSTNVATINMGGGITYYGDSVKERFDIRRDNASNTVTLSMDDLQPEDSAEYNCAGDSTIYASYYECGHGLSTGGYGYDSHYRGQGTDVTVSSASSAGGGGSYTDIEMNRLGKSHHHHHHG
With B2, in assay [2], the binding result is reported as “binds”.

B3: iMab144-02-0014 (designed binder)
chain: MLQVDIKPSQGEISVGESKFFLCQASGYTIGPSISWFSPNGEKLNMGSSTLTIYNANIDSAGIYNCATDGPEYGSSCQRTWVDSPDEFDFSEASVNVKIFQASSAGGGGSYTDIEMNRLGKSHHHHHHG
In the case of B3, the binding result in assay [3] was “binds”.

B4: iMab142-02-0011 (designed binder)
chain: MNVKLVEKGGNFVENDDDLKLTCRAEGYTIGPYCMGWFRQAPNDDSTNVSCINMGGGITYYGDSVKERFDIRRDNASNTVTLSMDDLQPEDSAVYNCAADPVGSCYADGFDSRGQGTDVTVSSASSAGGGGSYTDIEMNRLGKSHHHHHHG
As for B4, the binding result in assay [3] is given as “binds”.

B5: iMab143-02-0012 (designed binder)
chain: MIKVYTDRENYGAVGSQVTLHCSASGYTIGPISFTWRYQPEGDRDAISIFHYNMGDGSIVIHNLDYSDNGSFTCAADPVGSCYADGFDSGNSSQVTLYVFEASSAGGGGSYTDIEMNRLGKSHHHHHHG
As to B5, in assay [3], the binding result was “binds”.

B6: iMab143-02-0013 (designed binder)
chain: B5 chain with V79R, Y83W, A84V, D85G, G86E, F87Y, S89Y
Take B6: the binding result in assay [3] was “binds”.

B7: iMab142-02-0010 (designed binder)
chain: MNVKLVEKGGNFVENDDDLKLTCRAEGHTIGPYSMGWFRQAPNDDSTNVSCINMGGGITYYGDSVKERFDIRRDNASNTVTLSMDDLQPEDSAVYNCAAVMVRTRIPYGSSWYLHPLNTYEYDYRGQGTDVTVSSASSAGGGGSYTDIEMNRLGKSHHHHHHG
B7: in assay [1], the binding result is reported as “binds”.
